Source: PubChem BioAssay (ICCB-Longwood Screening Facility, Harvard Medical School)
HCMV UL50-53 inh – inhibitors of HCMV UL50-UL53 interaction, biochemical, HTRF; normalized percent inhibition; inhibition, % (test concentration not listed); 190,000 tested, 0.15% active; in the data active means inhibition above about 27%, passing the limit was not always enough
GIV Gai3 FP – GIV-Galpha-i interaction inhibition | P08753 | hit rate 0.42% among 210,000 | percent of control (FP), % (no concentration beside the values) | Galpha-i3/FITC-GIV peptide fluorescence polarization, 90 min; active compounds read low; scaled: aluminum fluoride 0%, vehicle 100%;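 active = replicate mean at 85% of control or lower, very high polarization wells dropped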;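 note: wells of about 15 µL received 100 nL stock; the first replicate is given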
Large screens that a line does not name were inactive. Hits are enriched below; roughly 0.43% of the tested compounds scored in any of these assays.

COc1ccc(C2CC(c3ccc(Cl)cc3)=NN2S(=O)(=O)c2ccccc2)cc1 (configuration not stated)	none
CC(=O)OCc1cc(C2C(C#N)=C(N)OC(N)=C2C#N)c(C)cc1C	GIV Gai3 FP -1.1 (no result: HCMV UL50-53 inh)
CCOC(=O)C1=C(C)OC(N)=C(C#N)C1c1ccccc1C (configuration not stated)	none (no result: HCMV UL50-53 inh)
CC(C)c1nn2c(S(=O)(=O)N3CCOCC3)c(C(C)C)nc2s1	none (no result: HCMV UL50-53 inh)
C=CCNc1nc2ccccn2c(=O)c1/C=C1\SC(=S)N(Cc2ccc3c(c2)OCO3)C1=O	GIV Gai3 FP -26.8 (no result: HCMV UL50-53 inh)
CN1C(=O)/C(=C/c2c(N3CCSCC3)nc3ccccn3c2=O)SC1=S	none
C=CCNc1nc2ccccn2c(=O)c1/C=C1\SC(=S)N(C)C1=O	GIV Gai3 FP -24.4
C=CCNc1nc2ccccn2c(=O)c1/C=C1\SC(=S)N(CCOC)C1=O	GIV Gai3 FP -75.4
O=C1/C(=C/c2c(NCCCn3ccnc3)nc3ccccn3c2=O)SC(=S)N1CC1CCCO1 (configuration not stated)	none (no result: HCMV UL50-53 inh)
O=C1/C(=C/c2c(NCC3CCCO3)nc3ccccn3c2=O)SC(=S)N1C1CCCCC1 (configuration not stated)	none (no result: HCMV UL50-53 inh)
O=C1/C(=C/c2c(NCc3ccccc3)nc3ccccn3c2=O)SC(=S)N1CC1CCCO1 (configuration not stated)	none (no result: HCMV UL50-53 inh)
CCCN1C(=O)/C(=C/c2c(NCC)nc3ccccn3c2=O)SC1=S	GIV Gai3 FP -75.4
COc1ccc(OC)c(NC(=O)C2CC(=O)N(CCc3c[nH]c4ccc(Cl)cc34)C2)c1 (configuration not stated)	none
CCCN1C(=O)/C(=N\OCC(=O)Nc2cccc(Cl)c2)c2ccccc21	none (no result: GIV Gai3 FP)
Cc1ccc(S(=O)(=O)Nc2ccc3oc4c(c3c2)CCCC4)cc1	none (no result: HCMV UL50-53 inh)
CCOC(=O)CC(C(=O)OCC)C1SCC(=O)N1NC(=O)c1ccc2[nH]c(C)c(C)c2c1 (configuration not stated)	none (no result: HCMV UL50-53 inh)
CCN1CCN(C(=O)c2sc(-n3nc(C)c(Cc4ccccc4)c3C)nc2C)CC1	none
O=C(c1ccc2nc(/C=C(\O)c3ccc(Cl)cc3)c(=O)[nH]c2c1)N1CCOCC1	GIV Gai3 FP 67.9
O=C(c1ccc2nc(/C=C(\O)c3ccc(Cl)cc3)c(=O)[nH]c2c1)N1CCN(c2ccco2)CC1	none
CCOC(=O)C1=NN(c2ccc(Cl)cc2)C(c2c[nH]c3ccccc23)N1c1ccc(C)cc1 (configuration not stated)	none (no result: HCMV UL50-53 inh)
Cc1cc(Cl)ccc1S(=O)(=O)Nc1cc2c(cc1SC(C)C)n(C)c(=O)n2C	none
N#CC1=C(N)OC2=C(CC/C2=C/c2ccccc2)C1c1ccccc1 (configuration not stated)	GIV Gai3 FP -56.6
CCN1CC2=C(OC(N)=C(C#N)C2c2ccc(F)cc2)/C(=C/c2ccc(F)cc2)C1 (configuration not stated)	none (no result: HCMV UL50-53 inh)
Cc1cccc(CSc2nc3cccnc3n2Cc2ccccc2F)c1	none
Cc1ccc(Cn2c(SCc3cccc(C)c3)nc3cccnc32)cc1	HCMV UL50-53 inh 22.2
O=C(CCc1nc2sc3c(c2c(=O)[nH]1)CCCCC3)Nc1ccc(Cl)cc1	none
C=CCn1c(=O)[nH]c2nc3cc(N=CN(C)C)ccc3nc2c1=O	none
C=CCn1c(=O)[nH]c2nc3cc(N=CN(C)C)c(C)cc3nc2c1=O	GIV Gai3 FP -15.9 (no result: HCMV UL50-53 inh)
Cc1cccc(NS(=O)(=O)c2cc(C(=O)NCc3ccco3)ccc2C)c1	none
N#Cc1c(NCc2ccccc2)ncc2c1Nc1ccccc1C2	GIV Gai3 FP 73.3
CC(C)c1nc(NCc2ccccc2)c(C#N)c2c1CCCC2	none
CCN1C(=O)CC(C(=O)Nc2ccc(Cl)cc2)SC1=Nc1ccc(Br)cc1 (configuration not stated)	none (no result: HCMV UL50-53 inh)
O=C1Nc2ccc(Br)cc2/C1=C/c1cc2c([nH]1)CCCC2	none (no result: GIV Gai3 FP)
CN(C)S(=O)(=O)c1ccc2c(c1)/C(=C/c1cc3c([nH]1)CCCC3)C(=O)N2	GIV Gai3 FP -20.7
O=C1S/C(=C/c2ccc(F)cc2)C(=O)N1CN1CCCCC1	none
N#CC1=C(N)SC(N)=C(C#N)C1c1ccccc1F	none (no result: GIV Gai3 FP)
CC(C)C1C(C#N)=C(N)SC(N)=C1C#N	none
Cc1ccc(C2C(C#N)=C(N)SC(N)=C2C#N)c(C)c1	GIV Gai3 FP 8.5
N#CC1=C(N)SC(N)=C(C#N)C1c1cccc2ccccc12	GIV Gai3 FP -36.0
COc1ccc(CCNC(=O)CCCn2c(SCC(=O)Nc3ccc(C)cc3)nc3ccccc3c2=O)cc1OC	none (no result: HCMV UL50-53 inh)
Cc1cc2nc3c(=O)[nH]c(=O)nc-3n(C[C@@H](O)[C@@H](O)[C@@H](O)COP(=O)(O)O)c2cc1C	none (no result: GIV Gai3 FP)
Cc1cc2nc3c(=O)[nH]c(=O)nc-3n(C(O)C(O)C(O)C(O)CO)c2cc1C (configuration not stated)	GIV Gai3 FP -74.4
COc1ccccc1OC(C)c1nc2c3ccccc3ncn2n1 (configuration not stated)	none
N#CC(C#N)=C1CCCN1CC(=O)c1ccccc1	none
c1ccc(Oc2nc3ccccc3nc2N2CCCC2)cc1	none
Cc1cc(C)n(-c2nc3cc(Cl)ccc3nc2Nc2ccc(C)c(F)c2)n1	none
Cc1cc(C)n(-c2nc3cc(Cl)ccc3nc2Nc2ccc3c(c2)n(C)c(=O)n3C)n1	GIV Gai3 FP 3.9
O=c1[nH]c2ccccc2[nH]1	none (no result: GIV Gai3 FP)
O=c1[nH]c2cc(Br)cnc2[nH]1	HCMV UL50-53 inh 76.9
COc1ccc(NC(=O)CCS(=O)(=O)c2cc(Br)cc3c2N(C(=O)C2CC2)CC3)cc1OC	none
Cc1ccc(C(=O)N/N=C/c2c[nH]c3ccccc23)cn1	none
Cc1ccc(C(=O)NC2(O)C(=O)c3ccccc3C2=O)cn1	HCMV UL50-53 inh 54.4
Cc1ccc2[nH]c3c(c2c1)CCC1C3=NNC1c1ccco1 (configuration not stated)	GIV Gai3 FP -65.7 (no result: HCMV UL50-53 inh)
Cc1ccc2[nH]c3c(c2c1)CCc1cn[nH]c1-3	none
O=C(NC1CCCC1)C1CCN(C(=O)c2ccc(-c3noc(C4CC4)n3)cc2)CC1	none
O=c1oc2cc(O)ccc2cc1-c1nnc(Nc2ccccc2F)s1	none
O=c1oc2cc(O)ccc2cc1-c1nc2ccccc2s1	GIV Gai3 FP -78.8
COc1ccc(Nc2nnc(-c3cc4c(ccc5ccccc54)oc3=O)s2)cc1	none
COc1cccc(Nc2nnc(-c3cc4ccc(O)cc4oc3=O)s2)c1	GIV Gai3 FP -69.2 (no result: HCMV UL50-53 inh)
CCOc1ccc2cc(-c3nc4ccccc4s3)c(=O)oc2c1	none
O=c1oc2cc(O)ccc2cc1-c1nnc(NCc2ccccc2)s1	GIV Gai3 FP -32.0 (no result: HCMV UL50-53 inh)
O=C(Oc1ccc2cc(-c3ccc(F)cc3)c(=O)oc2c1)c1ccco1	none
O=C(Oc1ccc2cc(-c3nc4ccccc4s3)c(=O)oc2c1)c1ccco1	GIV Gai3 FP -41.9 (no result: HCMV UL50-53 inh)
CC(C)n1c(=O)c(=O)[nH]c2cc(-c3noc(Cc4ccc(Br)cc4)n3)ccc21	none
COc1cccc2ncn(Cc3nc4ccccc4o3)c(=O)c12	none (no result: GIV Gai3 FP)
O=C(NCc1ccc2c(c1)OCO2)C1CCCN(C(=O)c2cc(-c3cccnc3)n[nH]2)C1 (configuration not stated)	none
CC(C)c1cc(C(=O)Nc2nc3c(s2)CCCC3)nn1C1CCS(=O)(=O)C1 (configuration not stated)	none
Cc1ccc(CNC(=O)c2ccc3c(=O)nc4c(-c5ccccc5)n[nH]n4c3c2)cc1	none
N#Cc1c(N2CCCC(C(=O)O)C2)nc(N)c2c(N)nc3c(c12)CC(=O)N3C1CCCC1 (configuration not stated)	none (no result: GIV Gai3 FP)
